From PMC10364322, “Evaluation of chronic drug-induced electrophysiological and cytotoxic effects using human-induced pluripotent stem cell-derived cardiomyocytes (hiPSC-CMs)” (Frontiers in Pharmacology, 2023)
Where two headings read alike, the source gives them in different places.

Test system: hiPSC-CMs (iCell-Cardiomyocytes^2)
Method: Cells were seeded according to the instructions of the cell provider, in fibronectin-coated 48-well MEA plates (Axion Cytoview Plates, M768-tMEA-48B) at a density suited to form a monolayer (i.e., 50 K/well) and maintained in culture in a stage incubator (37°C, 5% CO2).
At least 4 h before the beginning of the baseline measurements, a full medium exchange was performed (to a final volume of 400 µL per well). Neat compounds were dissolved in 100% DMSO at a stock concentration 1000-fold the highest target concentration. […] Afterwards, these stock solutions were diluted with Maintenance medium (CDi), to 10-fold the intended concentration. The final DMSO concentration in test solutions and vehicle control was 0.1%.
Spontaneous electrical activity was recorded in hiPSC-CMs monolayers as field potentials using the Maestro Pro MEA instrument (Axion Biosystems, Atlanta, GA, United States), which allows the maintenance of accurate temperature and CO2 levels (37°C, 5% CO2). After the plate was placed in the Maestro Pro and allowed to equilibrate for about 10 min, baseline acquisition of field potential and impedance signals was initiated and lasted for 5 min each. […] As impedance measures resistance of an applied alternating current through the hiPSC-CMs monolayer, a reduction in the attachment of hiPSC-CMs to the bottom of the well due to cell death or changes in the monolayer morphology, causes a drop in the impedance signal.
The potential presence of various arrhythmic events was evaluated and noted during the data analysis.
After the acquisition of all timepoint measurements, raw data were loaded into the data analysis software Axion Cardiac Analysis Tool (V.3.2.3). […] A.csv file containing information on the FP parameters per well, per time point, was then generated and used as input to the in-house data management system (SPEcII v.3.4, Unlimit-IT, Geel, Belgium), where descriptive statistics were calculated. Summary values at different time points after compound addition are expressed as percent change from baseline and shown as mean ± standard deviation (SD).
The nonparametric Wilcoxon-Mann Whitney Test was used to compare the percent change from the baseline (Δ%) value between the group treated with the compound at a given concentration and the group treated with the DMSO at each matching time points. A two-sided test at 5% significance level was considered. […] To assess the physiological relevance of changes, a tolerance interval of DMSO experiments was calculated at each time point, for each parameter. […] TIs indicate an interval where, with a certain confidence level (1- α = 0.95), a specified proportion (p = 0.80) of percent change for DMSO data falls. The lower and upper limits based on the TI values were used as cut-offs for the interpretation of the changes. For the cytotoxicity assays, measurements of fluorescence (after background fluorescence subtraction) from wells treated with the compounds were normalized by the average value of vehicle experiments (DMSO 0.1%) to obtain a DMSO-corrected, delta/delta percent change. Experiments from each condition, as delta/delta percent, were averaged and expressed as mean ± SD. Statistical analysis was performed using a non-parametric test (Kruskal-Wallis) and each treatment condition was compared to the relative DMSO 0.1%. Differences were considered statistically significant when the p-value was smaller than 0.05.

In the case of `CCN(CC)CCNC(=O)c1c(C)[nH]c(/C=C2\C(=O)Nc3ccc(F)cc32)c1C` [Sunitinib], the “Beating below threshold, number of observations/total well numbers” value (0.03 µM, 2h) is reported as 0/5, the “Cessation of beating, number of observations/total well numbers” value (0.03 µM, 2h) is reported as 0/5 and the “EAD, number of observations/total well numbers” value (0.03 µM, 2h) is reported as 0/5. The “Flat T-wave-like, number of observations/total well numbers” value (0.03 µM, 2h) was 0/5, the “Beating below threshold, number of observations/total well numbers” value (0.03 µM, 24h) was 0/5 and the “Cessation of beating, number of observations/total well numbers” value (0.03 µM, 24h) was 0/5. The “EAD, number of observations/total well numbers” value (0.03 µM, 24h) was 0/5, the “Flat T-wave-like, number of observations/total well numbers” value (0.03 µM, 24h) was 0/5 and the “Beating below threshold, number of observations/total well numbers” value (0.03 µM, 48h) was 0/5. The “Cessation of beating, number of observations/total well numbers” value (0.03 µM, 48h) was 0/5, the “EAD, number of observations/total well numbers” value (0.03 µM, 48h) was 0/5 and the “Flat T-wave-like, number of observations/total well numbers” value (0.03 µM, 48h) was 0/5. The “Beating below threshold, number of observations/total well numbers” value (0.03 µM, 72h) was 0/5, the “Cessation of beating, number of observations/total well numbers” value (0.03 µM, 72h) was 0/5 and the “EAD, number of observations/total well numbers” value (0.03 µM, 72h) was 0/5. The “Flat T-wave-like, number of observations/total well numbers” value (0.03 µM, 72h) was 0/5, the “Beating below threshold, number of observations/total well numbers” value (0.03 µM, 96h) was 0/5 and the “Cessation of beating, number of observations/total well numbers” value (0.03 µM, 96h) was 0/5. The “EAD, number of observations/total well numbers” value (0.03 µM, 96h) was 0/5, the “Flat T-wave-like, number of observations/total well numbers” value (0.03 µM, 96h) was 0/5 and the “Beating below threshold, number of observations/total well numbers” value (0.1 µM, 2h) was 0/5. For the same compound, the “Cessation of beating, number of observations/total well numbers” value (0.1 µM, 2h) was 0/5, the “EAD, number of observations/total well numbers” value (0.1 µM, 2h) was 0/5 and the “Flat T-wave-like, number of observations/total well numbers” value (0.1 µM, 2h) was 0/5. For the same compound, the “Beating below threshold, number of observations/total well numbers” value (0.1 µM, 24h) was 0/5, the “Cessation of beating, number of observations/total well numbers” value (0.1 µM, 24h) was 0/5 and the “EAD, number of observations/total well numbers” value (0.1 µM, 24h) was 0/5. The “Flat T-wave-like, number of observations/total well numbers” value (0.1 µM, 24h) was 0/5, the “Beating below threshold, number of observations/total well numbers” value (0.1 µM, 48h) was 0/5 and the “Cessation of beating, number of observations/total well numbers” value (0.1 µM, 48h) was 0/5. The “EAD, number of observations/total well numbers” value (0.1 µM, 48h) was 0/5, the “Flat T-wave-like, number of observations/total well numbers” value (0.1 µM, 48h) was 0/5 and the “Beating below threshold, number of observations/total well numbers” value (0.1 µM, 72h) was 0/5. The “Cessation of beating, number of observations/total well numbers” value (0.1 µM, 72h) was 0/5, the “EAD, number of observations/total well numbers” value (0.1 µM, 72h) was 0/5 and the “Flat T-wave-like, number of observations/total well numbers” value (0.1 µM, 72h) was 0/5. For the same compound, the “Beating below threshold, number of observations/total well numbers” value (0.1 µM, 96h) was 0/5, the “Cessation of beating, number of observations/total well numbers” value (0.1 µM, 96h) was 0/5 and the “EAD, number of observations/total well numbers” value (0.1 µM, 96h) was 0/5. For the same compound, the “Flat T-wave-like, number of observations/total well numbers” value (0.1 µM, 96h) was 0/5, the “Beating below threshold, number of observations/total well numbers” value (0.3 µM, 2h) was 0/5 and the “Cessation of beating, number of observations/total well numbers” value (0.3 µM, 2h) was 0/5. For the same compound, the “EAD, number of observations/total well numbers” value (0.3 µM, 2h) was 0/5, the “Flat T-wave-like, number of observations/total well numbers” value (0.3 µM, 2h) was 0/5 and the “Beating below threshold, number of observations/total well numbers” value (0.3 µM, 24h) was 0/5. The “Cessation of beating, number of observations/total well numbers” value (0.3 µM, 24h) was 0/5, the “EAD, number of observations/total well numbers” value (0.3 µM, 24h) was 2/5 and the “Flat T-wave-like, number of observations/total well numbers” value (0.3 µM, 24h) was 0/5. The “Beating below threshold, number of observations/total well numbers” value (0.3 µM, 48h) was 0/5, the “Cessation of beating, number of observations/total well numbers” value (0.3 µM, 48h) was 0/5 and the “EAD, number of observations/total well numbers” value (0.3 µM, 48h) was 3/5. For the same compound, the “Flat T-wave-like, number of observations/total well numbers” value (0.3 µM, 48h) was 0/5, the “Beating below threshold, number of observations/total well numbers” value (0.3 µM, 72h) was 0/5 and the “Cessation of beating, number of observations/total well numbers” value (0.3 µM, 72h) was 0/5. The “EAD, number of observations/total well numbers” value (0.3 µM, 72h) was 0/5, the “Flat T-wave-like, number of observations/total well numbers” value (0.3 µM, 72h) was 0/5 and the “Beating below threshold, number of observations/total well numbers” value (0.3 µM, 96h) was 0/5. The “Cessation of beating, number of observations/total well numbers” value (0.3 µM, 96h) was 0/5, the “EAD, number of observations/total well numbers” value (0.3 µM, 96h) was 1/5 and the “Flat T-wave-like, number of observations/total well numbers” value (0.3 µM, 96h) was 0/5. For the same compound, the “Beating below threshold, number of observations/total well numbers” value (1 µM, 2h) was 0/5, the “Cessation of beating, number of observations/total well numbers” value (1 µM, 2h) was 0/5 and the “EAD, number of observations/total well numbers” value (1 µM, 2h) was 0/5. The “Flat T-wave-like, number of observations/total well numbers” value (1 µM, 2h) was 2/5, the “Beating below threshold, number of observations/total well numbers” value (1 µM, 24h) was 0/5 and the “Cessation of beating, number of observations/total well numbers” value (1 µM, 24h) was 0/5. The “EAD, number of observations/total well numbers” value (1 µM, 24h) was 0/5, the “Flat T-wave-like, number of observations/total well numbers” value (1 µM, 24h) was 5/5 and the “Beating below threshold, number of observations/total well numbers” value (1 µM, 48h) was 0/5. The “Cessation of beating, number of observations/total well numbers” value (1 µM, 48h) was 3/5, the “EAD, number of observations/total well numbers” value (1 µM, 48h) was 0/5 and the “Flat T-wave-like, number of observations/total well numbers” value (1 µM, 48h) was 2/5. For the same compound, the “Beating below threshold, number of observations/total well numbers” value (1 µM, 72h) was 0/5, the “Cessation of beating, number of observations/total well numbers” value (1 µM, 72h) was 4/5 and the “EAD, number of observations/total well numbers” value (1 µM, 72h) was 0/5. The “Flat T-wave-like, number of observations/total well numbers” value (1 µM, 72h) was 1/5, the “Beating below threshold, number of observations/total well numbers” value (1 µM, 96h) was 0/5 and the “Cessation of beating, number of observations/total well numbers” value (1 µM, 96h) was 5/5. The “EAD, number of observations/total well numbers” value (1 µM, 96h) was 0/5 and the “Flat T-wave-like, number of observations/total well numbers” value (1 µM, 96h) was 0/5.
